Assay [1] deals with T cells. As to the kind of experiment: T cell expansion with cytokines after TCR stimulation (cell surface staining). The format is cell-based. The conditions noted are these: αCD3/αCD28 beads plus indicated cytokine. The procedure:
Previously frozen T cells were thawed and contacted with αCD3/αCD28 dynal beads (cell to bead ratio of 1 to 3) in the presence of indicated cytokines at day 0. From day 3, twice more T cell growth media (RPMI1640, 10% FBS, 2 mM L-glutamin, 100 µM non-essential amino acids, 1 mM sodium pyruvate, 10 mM Hepes, 55 µM β-mercaptoethanol, 10% FBS, and 100 U/ml of penicillin-streptomycin) was added to the plate with indicated cytokines (without cytokine, rhIL2 (50 IU/ml, Novartis), IL6 (10 ng/ml, R&D systems), IL7 (10 ng/ml, Peprotech), IL15 (10 ng/ml, Peprotech), and IL21 (10 ng/ml, Peprotech)) at day 3, 5, 6, 9, 12, 15, and 18. Cells treated without cytokine, IL6, or IL21 were cultured until day 18 and cells treated with IL2, IL7, or IL15 were cultured until day 25.
Cells were harvested at indicated time points and then stained with live/dead dye (eFluro780, eBioscience), CD3 (BioLegend, clone#: OKT3), CD4 (BioLegend, clone#: OKT4), CD8 (BD Bioscience, clone#: RPA-T8), CD45RO (BioLegend, clone#: UCHL1), CCR7 (BioLegend, clone#: G043H7), CD27 (BD Horizon, clone#: L128), CD127 (BioLegend, clone#: A019D5), CD57 (BioLegend, clone#: HCD57), CD126 (BioLegend, clon#: UV4), and CD130 (R&D Systems, clone#: 28126) antibodies. The cells were acquired by FACS Fortessa and then FlowJo program was used for data analysis.

In assay [2] the test system is T cells. As to the kind of experiment: Cytokine process: T cell differentiation status and CAR transduction by flow cytometry. Format: cell-based. The conditions noted are these: purified T cells incubated with cytokine, no other activation stimulus. The method, then:
After obtaining an apheresis within 24 hours of collection, T cells were purified and the purity of the T-cells obtained was assessed by flow cytometry. The T cells were frozen and placed in the liquid nitrogen until required for use.
IL-7 and IL-15 were prepared at 1,000 folds of the final concentration required. IL-2 was prepared by a 10-fold dilution in media.
At the time of plating, the cells were transduced with a lentiviral vector with a multiplicity of infection (MOI) of 1. The specific volume of vector to be transduced was calculated based on the multiplicity of infection (MOI) and concentration (titer) of the vector lot in use. The titer and the MOI were measured based on primary T cell lines.
In the conditions where cytokines alone were utilized for stimulation, the cells were resuspended post wash at a concentration of 1E7/ml and added to a conical tube that already contained the cytokines depending on the condition (Table 19). […]
On the following day the cells were harvested, the concentration and viability of the cells was noted. Their function was measured using a cytotoxicity and proliferation (EDU) incorporation assay. […]
The cells were immunophenotyped for T cell differentiation status and transduction of the CAR was assessed using flow cytometry. […] After the incubation, the cells were washed twice and fixed prior to being analyzed on the BD fortessa.
A general note: Flow cytometry measures light scatter and fluorescence of single cells or particles in a stream.

As for “IL2: cytokine present during activation of T cells with αCD3αCD28 beads”, in the assay with T cells [1], the T cell expansion entry is listed as “enhanced T cell expansion”.
Consider IL-2: cytokine used in T cell culture, for which the “maintenance of self-renewing T cells (CD45RO-CCR7+)” value in the assay with T cells [2] is “maintained self-renewing T cells in vitro”.
